This is an account of results in patent US12319684B2 (Sanford Burnham Prebys Medical Discovery Institute, priority 2014, dated 2025).

The assay addresses T1, human apelin receptor (APJ, AGTRL-1, APLNR) (Homo sapiens, UniProt P35414).
T1 construct: host or cells: Chinese hamster ovary cells
T1 sequence (P35414 1-380): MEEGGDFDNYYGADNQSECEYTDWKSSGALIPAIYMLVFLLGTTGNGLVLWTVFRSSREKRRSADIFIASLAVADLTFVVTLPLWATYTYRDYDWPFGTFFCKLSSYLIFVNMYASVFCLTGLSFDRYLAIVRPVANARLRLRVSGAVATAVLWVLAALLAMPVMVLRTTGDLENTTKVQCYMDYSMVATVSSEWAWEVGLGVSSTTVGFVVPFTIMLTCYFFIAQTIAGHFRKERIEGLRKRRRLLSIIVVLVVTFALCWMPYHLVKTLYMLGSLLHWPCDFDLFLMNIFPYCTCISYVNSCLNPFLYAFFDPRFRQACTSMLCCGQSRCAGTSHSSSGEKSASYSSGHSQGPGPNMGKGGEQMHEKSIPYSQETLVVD
The experiment in a line: APJ cAMP cell-based assay (forskolin-stimulated CHO cells, enzyme fragment complementation). The method, then: The assays disclosed herein were performed using cell lines from DiscoveRx, Inc.
Biological activity was determined in a cell-based assay. This assay detects activation of the receptor by reporting on intracellular cyclic adenosine monophosphate (cAMP) level. Chinese hamster ovary cells engineered to express a stably integrated human apelin receptor (APJ, AGTRL-1, APLNR), were plated into the wells of a microtiter plate. Cells were stimulated with forskolin to increase intracellular cAMP. Immediately following, compounds were added at a range of final concentrations 0.0-100 μM, in DMSO (not to exceed a final DMSO concentration of >1% v/v), and allowed to incubate with the cells for 0.5 h. At the end of the incubation, cells were lysed to stop APJ signaling, and cAMP was quantified using a commercially available assay kit that applies enzyme fragment complementation technology and bioluminescence, in a competitive ELISA format.
Compound efficacy (% resp) is reported as a percentage of the maximal apelin-13 response at 1 nM (control).

Usually EC50 stands for the concentration giving half of the maximal effect.

The compound `COc1ccccc1-n1c(NCc2cc(=O)n3cc(C)ccc3n2)nnc1-c1cccs1` [Example 85, 4-(2-Methoxy-phenyl)-3-(2-phenyl-oxazol-4-ylmethoxy)-5-thiophen-2-yl-4H-[1,2,4]triazole] gave an EC50 greater than 10 µM.
